From PubChem BioAssay AID651704 (Broad Institute, 2012)
This is a selection; strong and weak results do not stand in their true shares. Activity calls are given as the source filed them.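 The calls were made as follows: active = every replicate reaching a set inhibition limit, whatever the replicate mean (cut at about 25% in these data); inconclusive = mean inhibition reaches that limit but some replicates miss it; inactive = the rest.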

Protein sequences, listed by entry. Tags and fused reporters are not part of them.
UniProt P42568, whole entry: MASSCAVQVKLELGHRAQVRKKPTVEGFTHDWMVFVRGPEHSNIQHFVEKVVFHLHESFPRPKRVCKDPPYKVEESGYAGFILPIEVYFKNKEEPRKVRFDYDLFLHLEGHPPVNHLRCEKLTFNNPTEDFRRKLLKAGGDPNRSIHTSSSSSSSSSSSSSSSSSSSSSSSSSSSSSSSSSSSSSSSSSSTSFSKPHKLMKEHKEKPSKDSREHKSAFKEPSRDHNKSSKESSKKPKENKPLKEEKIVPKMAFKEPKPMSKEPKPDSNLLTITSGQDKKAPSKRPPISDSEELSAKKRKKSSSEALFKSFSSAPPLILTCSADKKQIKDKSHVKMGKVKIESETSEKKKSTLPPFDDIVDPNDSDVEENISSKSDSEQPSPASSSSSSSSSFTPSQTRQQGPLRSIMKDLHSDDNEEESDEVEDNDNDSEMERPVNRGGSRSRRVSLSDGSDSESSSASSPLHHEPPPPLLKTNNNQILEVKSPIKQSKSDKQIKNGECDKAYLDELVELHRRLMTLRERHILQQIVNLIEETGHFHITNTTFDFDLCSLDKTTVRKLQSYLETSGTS

The compounds below were run against Protein AF-9 (Homo sapiens) (UniProt P42568) (assay: MLL-AF4/AF9 protein interaction blockers – biochemical, AlphaScreen, biotin-AF4 peptide, FLAG-AF9, single point, primary screen (AID 651704;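 also: 0% = plate neutral control median and 100% = total signal loss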)). Conditions: biotin-AF4 peptide binding to FLAG-AF9, at 10 µM, stronger effect = higher value.

| Compound | inhibition |
| --- | --- |
| Cc1ccc(NP(=O)(Oc2ccccc2F)Oc2ccccc2F)nc1 | inactive: -15% |
| CN(C(=O)Cc1ccc(Cl)c(Cl)c1)[C@H]1CCCC[C@@H]1N1CCCC1 | inactive: 1.74% |
| CP(=O)(Nc1ccc(Cl)cc1Cl)Oc1ccccc1 (configuration not stated) | inactive: -1.04% |
| CCCCCCCCCCCCCCCC1C[N+](C)(C)CCOP(C)(=O)O1 (configuration not stated) | inactive: -2.56% |
| CP(=O)(OCCOc1ccccc1)OCCOc1ccccc1 | inactive: -8.59% |
| Nc1cccc2ccc([As](=O)(O)O)cc12 | inactive: -0.864% |
| NC(=O)c1cc([N+](=O)[O-])cc([N+](=O)[O-])c1N | inactive: -0.357% |
| Cc1ccc(N/C(=N/P(=O)(N2CCOCC2)N2CCOCC2)N2CCOCC2)cc1 | inactive: 0.058% |
| CN(C(=O)Cc1ccc(Cl)c(Cl)c1)[C@H]1CCCC[C@H]1N1CCCC1 | inactive: -1.21% |
| COc1ccccc1OP(C)(=O)Nc1ccc(Br)cc1 (configuration not stated) | inactive: 9.1% |
| COc1ccccc1OP(=O)(Nc1ccc(C)cn1)Oc1ccccc1OC | inactive: -0.694% |
| Clc1ccc(Cl)c(NC2=NCC(CBr)S2)c1 (configuration not stated) | inactive: 0.708% |
| O=[N+]([O-])c1cc([N+](=O)[O-])c(Nc2ccccn2)c([N+](=O)[O-])c1 | inactive: 7.16% |
| O=C(NC(Sc1ccncn1)C(Cl)(Cl)Cl)c1ccccc1 (configuration not stated) | inactive: -3.63% |
| COc1ccc(C2=NCC(CBr)S2)cc1 (configuration not stated) | inactive: -11.1% |
| CCc1ccc(OP(C)(=O)Nc2cccnc2)cc1 (configuration not stated) | inactive: 0.29% |
| O=[N+]([O-])c1cc([N+](=O)[O-])c(CCNc2ccccc2)c([N+](=O)[O-])c1 | inactive: 13.1% |
| Cc1ccc(NP(=O)(Oc2ccccc2)Oc2ccccc2)nc1 | inactive: 0.472% |
| COc1ccccc1OP(C)(=O)Nc1ccccc1Br (configuration not stated) | inactive: 0.32% |
| Nc1ccc([As](=O)(O)c2ccc(N)cc2)cc1 | inactive: -6.5% |
| CCN(/C(=N/P(=O)(N1CCOCC1)N1CCOCC1)N1CCOCC1)c1ccc(OC)cc1 | inactive: -2.98% |

| Compound | inhibition |
| --- | --- |
| CC(C)c1nc(Nc2ccccc2)n(P(=O)(N(C)C)N(C)C)n1 | inactive: 0.487% |
| CN(C)C(=O)c1c([N+](=O)[O-])cc([N+](=O)[O-])cc1[N+](=O)[O-] | inactive: -2.78% |
| CC(C)=N/N=C(\N)N[N+](=O)[O-] | inactive: 0.632% |
| c1cc(-c2nn[nH]n2)ccc1-c1nn[nH]n1 | inactive: -1.39% |
| Nc1ccc2c(ccc3cccnc32)n1.O=[N+]([O-])c1cc([N+](=O)[O-])c(O)c([N+](=O)[O-])c1 | inactive: -2.47% |
| O=P1(N(CCCl)CCCl)OCCCS1 (configuration not stated) | inactive: -1.83% |
| O=C(Nc1cc([As](=O)(O)O)ccc1O)c1ccccc1 | inactive: -6.93% |
| CCOC(=O)c1ccc(NP(C)(=O)Oc2ccc(Cl)cc2)cc1 (configuration not stated) | inactive: -3.11% |
| CC(C)(C)C(=O)NC(Sc1ccncn1)C(Cl)(Cl)Cl (configuration not stated) | inactive: -23.4% |
| O=[N+]([O-])c1ncn(CCn2ncnc2[N+](=O)[O-])n1 | inactive: -1.1% |
| COC(=O)C1(C)COP(=O)(Nc2ccccc2)OC1 (configuration not stated) | inactive: -0.441% |
| O=C(O)CNc1ccc([As](=O)(O)O)cc1 | inactive: -3.48% |
| CC1CCNP(=O)(N(CCCl)CCCl)O1 (configuration not stated) | inactive: 0.12% |
| O=C(O)C(=O)c1ccc(N(CCCl)CCCl)cc1.c1ccc(Nc2ccccc2)cc1 | inactive: -3.01% |
| CCOC(=O)Nc1ccc([As](=O)(O)O)c(O)c1 | inactive: 0.59% |
| CCCCOc1ccc(C(=O)NCC2(N3CCCCC3)CCCCC2)cc1OC | inactive: 4.96% |
| COP(=O)(OC)N1CC1c1ccccc1 (configuration not stated) | inactive: 4.13% |
| CCOC(=O)Nc1cccc([As](=O)(O)O)c1 | inactive: -2.56% |
| O=[N+]([O-])c1ccc(Nc2ccc(Oc3ccc([N+](=O)[O-])cc3[N+](=O)[O-])cc2)c([N+](=O)[O-])c1 | inactive: -4.49% |
| CP(=O)(Nc1ccccc1Br)Oc1ccccc1 (configuration not stated) | inactive: 9.55% |
| COc1ccccc1OP(C)(=O)Nc1ccccc1 (configuration not stated) | inactive: 0.381% |

| Compound | inhibition |
| --- | --- |
| O=P(Nc1ccccn1)(c1cccc2ccccc12)c1cccc2ccccc12 | inactive: -0.289% |
| Cc1cc(SC(NC=O)C(Cl)(Cl)Cl)ncn1 (configuration not stated) | inactive: 0.494% |
| CP(=O)(Oc1ccccc1)OC(c1ccccc1)C(F)(F)F (configuration not stated) | inactive: 0.121% |
| COC(=O)C1(C)COP(=O)(N2CCCC2)OC1 (configuration not stated) | inactive: -2.7% |
| COP1(=S)c2c(C)nn(CCC#N)c2N=C(c2ccc(F)cc2)N1C (configuration not stated) | inactive: 5.04% |
| CP(=O)(Nc1ccc(SC(F)(F)F)cc1)Oc1ccc(Cl)cc1 (configuration not stated) | inactive: 1.81% |
| O=C(Nc1ccncc1[N+](=O)[O-])c1ccc([N+](=O)[O-])cc1[N+](=O)[O-] | inactive: 0.171% |
| CP(=O)(NC(=O)Nc1ccccc1)Oc1ccccc1 (configuration not stated) | inactive: -2.58% |
| CCc1ccc(OP(C)(=O)N2CCN(c3ccc([N+](=O)[O-])cc3)CC2)cc1 (configuration not stated) | inactive: 2.39% |
| CCOC(=O)c1ccc(NC(=O)C(C)(CCl)SC)cc1 (configuration not stated) | inactive: -0.484% |
| CCOC(=O)c1ccc(NP(C)(=O)Oc2ccc(OC)cc2)cc1 (configuration not stated) | inactive: -2.07% |
| O=[N+]([O-])c1cc([N+](=O)[O-])c(O)c([N+](=O)[O-])c1.c1ccc(Oc2ccncc2)cc1 | inactive: -0.767% |
| O=C(OC1CN2CCC1CC2)c1cccc([N+](=O)[O-])c1 (configuration not stated) | inactive: -0.989% |
| CP(=O)(Nc1ccccn1)Oc1ccc(Cl)cc1 (configuration not stated) | inactive: 4.84% |
| Cc1cc(=O)[nH]c(N[N+](=O)[O-])n1 | inactive: -1.06% |
| CCN(CC)CCCOC(=O)C(O)(c1ccccc1)c1ccccc1 | inactive: -0.444% |
| Cc1c2c(nc3ccccc13)SC(C(Cl)Cl)C2 (configuration not stated) | inactive: -3.42% |
| COc1cc(I)ccc1[As](=O)(O)O | inactive: 2.11% |
| COc1ccc2nc(NP(=O)(c3ccccc3)c3ccccc3)sc2c1 | inactive: 0.535% |
| COc1ccc(CN2/C(=N\P(=O)(Oc3ccccc3)Oc3ccccc3)Cc3ccccc3C2C2CC2)cc1 (configuration not stated) | inactive: 0.551% |
